Measurements published in PubChem BioAssay AID743255 (National Center for Advancing Translational Sciences (NCATS), 2014).
The list shows a part of the results, in another mix than the full data. Results filed as inconclusive are left out. Calls of active or inactive are those of the source. Calls come from the whole dose curve; as a rule, active = well fitted inhibition curve with a large enough effect; inconclusive = small, poorly fitted or top-dose-only effect; inactive = no such curve, though single readings can be large or run the other way.

Chains of the proteins cited; added tags and fusions are not shown. Lines headed by an entry give the natural chain unless they say otherwise; changes in a name come on top.
UniProt O94782: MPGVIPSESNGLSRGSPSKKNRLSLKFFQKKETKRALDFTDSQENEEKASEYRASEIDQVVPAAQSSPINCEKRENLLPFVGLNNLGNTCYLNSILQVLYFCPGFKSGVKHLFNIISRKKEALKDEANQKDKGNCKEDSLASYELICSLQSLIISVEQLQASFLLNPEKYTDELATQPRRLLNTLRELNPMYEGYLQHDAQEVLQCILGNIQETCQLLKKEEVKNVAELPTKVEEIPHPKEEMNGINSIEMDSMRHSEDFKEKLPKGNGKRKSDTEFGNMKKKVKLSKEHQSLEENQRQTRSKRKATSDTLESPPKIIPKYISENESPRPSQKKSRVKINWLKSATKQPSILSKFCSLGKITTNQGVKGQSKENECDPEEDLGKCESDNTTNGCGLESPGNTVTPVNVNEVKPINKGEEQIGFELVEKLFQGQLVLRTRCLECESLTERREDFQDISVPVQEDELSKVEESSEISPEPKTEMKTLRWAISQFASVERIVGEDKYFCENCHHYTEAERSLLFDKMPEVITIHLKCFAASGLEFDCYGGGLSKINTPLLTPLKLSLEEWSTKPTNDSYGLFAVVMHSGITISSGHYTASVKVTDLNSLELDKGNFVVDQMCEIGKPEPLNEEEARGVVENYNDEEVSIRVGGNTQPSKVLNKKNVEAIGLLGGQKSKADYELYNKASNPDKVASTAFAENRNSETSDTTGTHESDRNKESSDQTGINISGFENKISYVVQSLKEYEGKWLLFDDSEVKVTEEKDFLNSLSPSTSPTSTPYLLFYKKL

target: Ubiquitin carboxyl-terminal hydrolase 1 (Homo sapiens) (UniProt O94782); experiment: Inhibitors of USP1/UAF1: Primary Screen; details: recombinant USP1/UAF1, Ub-Rhodamine cleavage fluorescence; at 57.1 µM (top of the series); note: nearly all actives have a fitted effect of over 60% in size
Procedure, shortened: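 USP1/UAF1 complex at 1 nM was preincubated with compound for 15 min at room temperature, then Ub-Rho substrate (150nM final) was added. Fluorescence (480/540 nm) was read kinetically, 6 reads every 60 seconds.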
% is set by controls: 0 for no effect and ±100 for the full control effect.

SMILES | activity change, negative = inhibition
Cc1cc(SC(NC(=O)c2ccc(F)cc2)C(Cl)(Cl)Cl)ncn1 (centres undefined) | inactive: -6.79%
CCOP(=O)(Nc1ccccc1)OCC | inactive: -23.3%
CC(C)(C)C(=O)NC(Sc1ccncn1)C(Cl)(Cl)Cl (centres undefined) | inactive: -22.8%
O=[N+]([O-])c1ncn(CCn2ncnc2[N+](=O)[O-])n1 | inactive: -4.29%
COC(=O)C1(C)COP(=O)(Nc2ccccc2)OC1 (centres undefined) | inactive: -18.6%
O=[N+]([O-])c1cccc(NC2=NCC(CBr)S2)c1 (centres undefined) | inactive: -26%
O=C(O)CNc1ccc([As](=O)(O)O)cc1 | inactive: -5.38%
O=P1(N(CCCl)CCCl)OCCCS1 (centres undefined) | inactive: -21.4%
O=C(Nc1cc([As](=O)(O)O)ccc1O)c1ccccc1 | inactive: -1.6%
Nc1ccc([As](=O)(O)c2ccc(N)cc2)cc1 | inactive: -17.6%
CCN(/C(=N/P(=O)(N1CCOCC1)N1CCOCC1)N1CCOCC1)c1ccc(OC)cc1 | inactive: 3.98%
CN(C)C(=O)OCCc1n(C)cc[n+]1C | inactive: -18.7%
CC(C)c1nc(Nc2ccccc2)n(P(=O)(N(C)C)N(C)C)n1 | inactive: -21.5%
CC(C)=N/N=C(\N)N[N+](=O)[O-] | inactive: -18.9%
CC1CCN(C(=O)Oc2c(Cl)cc(Cl)c3cccnc23)CC1 | inactive: -16.6%
c1cc(-c2nn[nH]n2)ccc1-c1nn[nH]n1 | inactive: -23.6%
COc1ccc(C2=NCC(CBr)S2)cc1 (centres undefined) | inactive: -19.4%
CC(=O)N1C2C3N(C(C)=O)C1C1N(C(C)=O)C(C(N1C(C)=O)N3C(C)=O)N2C(C)=O | inactive: -24.1%
O=[N+]([O-])c1cccc2n[nH]nc12 | inactive: 0.825%
O=[N+]([O-])c1cc([N+](=O)[O-])c(CCNc2ccccc2)c([N+](=O)[O-])c1 | inactive: -10.3%
Cc1ccc(NP(=O)(Oc2ccccc2)Oc2ccccc2)nc1 | inactive: -17.2%
O=P(Nc1nccs1)(c1ccccc1)c1ccccc1 | inactive: -17.8%
CC(C)C(=O)NC(Sc1ccccc1)C(Cl)(Cl)Cl (centres undefined) | inactive: -16.2%
c1nnnn1CCn1cnnn1 | inactive: -11.5%
O=[N+]([O-])c1ncn(CCn2cnc([N+](=O)[O-])n2)n1 | inactive: -8.8%
CC(=O)NC(SC(=S)N(C)C)C(Cl)(Cl)Cl (centres undefined) | inactive: 1.42%
O=[N+]([O-])c1ccc(O)c(/C=N/Nc2ccc([N+](=O)[O-])cc2[N+](=O)[O-])c1 | inactive: -1.89%
O=[As](O)(c1ccccc1)c1ccc(O)cc1 | inactive: -6.36%
C(Cc1nn[nH]n1)Cc1nn[nH]n1 | inactive: -13.7%
